Hits are enriched below; roughly 2.2% of the tested compounds scored in any of these assays.
B2AR arrestin: beta2AR (human) beta-arrestin recruitment activity; beta-arrestin recruitment to beta2AR, cell-based reporter; Potency, µM (top dose mostly 46.1 µM), for inactives: at the highest dose activation, actives largely listed as activators; hit rate 0.02% among 330,000; AID 492947;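 note: potency is the fitted concentration of half-maximal effect; 0% = DMSO controls and full agonism = EC100 isoproterenol or metaproterenol; nearly all actives have a fitted effect of over 65% in size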
miR-21 reporter: miR-21 reporter, rising signal | HeLa miR-21 FLuc reporter, luciferase, 48 h | Potency, µM (top dose mostly 38.3 µM), inactives show at the highest dose reporter change, positive = more light | 340,000 tested, under 10 active | AID 2288; active = well fitted rising curve with a large enough effect; inconclusive = small, poorly fitted or top-dose-only effect; inactive = no such curve, though single readings can be large or run the other way;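 note: % of control where 0% means no effect; miR-21 action dims this reporter so a rising signal means less miR-21 action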
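Using DMEM plus 10% FBS, HeLa miR-21-FLuc cells are incubated with test compounds (final up to about 40uM) for 48 hours; firefly luciferase signal is then imaged following reagent-mediated lysis.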
Nrf2 activator: Nrf2 pathway activation; AREc32 ARE-luciferase reporter (MCF7-derived line), luminescence, 24 h; Potency, µM (doses to about 46.1 µM), inactives show at the highest dose activation, actives largely listed as activators; hit rate 0.31% among 410,000; note: potency is the fitted concentration of half-maximal effect; % of control where 0% means no effect; nearly all actives have a fitted effect of over 65% in size
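AREc32_Fluc, 1000 cells/well, OPTI-MEM + 5% FBS, o/n 37 deg C 5% CO2; 23 nL cpd by pin tool, 24 hr; Steady-Glo 30 min RT, luminescence.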
A549 tox-1: counter-screen for Nrf2 inhibitors: cytotoxicity in A549 cells; hit rate 0.16% among 390,000; Potency, µM (series often up to 46 µM), for the others: at the highest dose activity change, negative = cytotoxicity, actives largely listed as inhibitors; A549 ARE-Fluc cells, CellTiter-Fluor viability, 18-24 h; note: potency is the fitted concentration of half-maximal effect; % is set by controls: 0 for no effect and ±100 for the full control effect
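Cytotoxicity counterscreen: CellTiter-Fluor fluorescence was measured in A549 ARE_Fluc cells after 18-24 h of compound exposure in a concentration series. The subsequent BugLite luminescent read reports ARE-luciferase activity.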
Nrf2 block: Nrf2 pathway inhibition | Potency, µM (doses to about 46 µM), inactives show at the top dose activity change, negative = inhibition, hits mostly inhibitors | AID 504444 | A549 ARE-Fluc reporter, luciferase luminescence, 18-24 h | hit rate 2.1% among 360,000; note: potency is the fitted concentration of half-maximal effect; % is set by controls: 0 for no effect and ±100 for the full control effect; nearly all actives have a fitted effect of over 60% in size
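A549 ARE_Fluc cells, 5000/well, 5% FBS OPTI-MEM; compounds in dose-response, 18-24 h at 37 °C/5% CO2; CellTiter-Fluor viability read (Ex 405/Em 525), then BugLite luciferase luminescence = Nrf2 activity.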
FLuc counter 3: blocks purified firefly luciferase in Nrf2 counterscreen | hit rate 4% among 1,400 | shares compounds with Nrf2 block | AID 720522 | purified firefly luciferase, luminescence inhibition | Potency, µM (highest dose often 57.5 µM), for the others: at the top dose activity change, negative = inhibition, usual class: inhibitors; note: potency is the fitted concentration of half-maximal effect; % is set by controls: 0 for no effect and ±100 for the full control effect; nearly all actives have a fitted effect of over 65% in size
A549 tox-2: A549 cytotoxicity, Nrf2 inhibitor counterscreen | shares compounds with Nrf2 block | hit rate 2% among 1,400 | A549 ARE-Fluc cells, cytotoxicity counterscreen | Potency, µM (highest dose often 46.1 µM), for the others: at the top dose activity change, negative = cytotoxicity, usual class: inhibitors;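 note: potency is the fitted concentration of half-maximal effect; cells exposed to compounds for 18 to 24 hours; % is set by controls: 0 for no effect and ±100 for the full control effect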
Nrf2 ARE inh: confirmation of Nrf2 inhibitors in A549 ARE reporter cells | shares compounds with Nrf2 block | hit rate 74% among 1,400 | Potency, µM (top dose mostly 46.1 µM), inactives show at the top dose activity change, negative = inhibition, hits mostly inhibitors | AID 720524 | A549 ARE-firefly luciferase reporter, luminescence; note: potency is the fitted concentration of half-maximal effect; % is set by controls: 0 for no effect and ±100 for the full control effect; nearly all actives have a fitted effect of over 65% in size
An asterisk follows results filed as active; ? = inconclusive; / = no result given. Calls come from the whole dose curve; as a rule, active = well fitted curve in the direction sought with a large enough effect; inconclusive = small, poorly fitted or top-dose-only effect, or another doubt; inactive = no such curve, though single readings can be large; an effect the other way counts as inactive or inconclusive.

Each structure is followed by: B2AR arrestin	A549 tox-1	miR-21 reporter	A549 tox-2	Nrf2 ARE inh	Nrf2 activator	FLuc counter 3	Nrf2 block
> CC(C)Oc1ccc(CNC(=O)CCCn2c(=O)c3cccn3c3ccccc32)cc1
  /	-1.9%	3.4%	/	/	2.5%	/	2.5%
> CC(C)(C)n1ncc2c(=O)n(Cc3ccc(-c4ccccc4C#N)cc3)cnc21
  /	/	/	-8.6%	9.2µM*	/	-11.3%	/
> Cc1cccc(C)c1NC(=O)c1oc2c(c1C)-c1nn(Cc3ccccc3)cc1CC2
  /	-7.1%	-2.4%	/	/	-1.2%	/	-7.5%
> Cc1c(C(C)NC(=O)c2cc(COc3cccc4cnccc34)on2)cnn1C (centres undefined)
  0.2%	-16.7%	?	1.4%	7.31µM*	-0.2%	-13.6%	8.2µM*
> C/C(=N/NC(=O)c1cc(-c2cccc([N+](=O)[O-])c2)n[nH]1)c1cccc(O)c1
  0.4%	-0.5%	-2.2%	/	/	1.3%	/	-41.1%
> C/C(=N\NC(=O)c1cc(-c2cccc([N+](=O)[O-])c2)n[nH]1)c1ccccc1O
  0.1%	?	3.7%	-3.2%	?	-1.2%	-13.5%	9.2µM*
> Cc1cccc(/C=C/c2cccs2)n1
  /	/	/	-25.8%	2.59µM*	/	-0.8%	/
> Cc1ccsc1/C=C/c1ccc2cccc(O)c2n1
  13.0%	?	-41.0%	/	/	?	/	2.9%
> Cc1cccc2sc(N(Cc3cccnc3)C(=O)C3COc4ccccc4O3)nc12 (centres undefined)
  /	9.3%	3.5%	/	/	0.4%	/	/
> O=C(CSc1nc2c([nH]c3ccccc32)c(=O)n1-c1ccccc1F)Nc1cccc(Cl)c1
  /	-22.8%	?	/	/	2.8%	/	/
> CC1C(=O)OC(c2ccc(Cl)cc2)C(C)(C)C1=O (centres undefined)
  -0.5%	-0.8%	-0.4%	/	/	0.1%	/	-5.6%
> C[C@@H]1C=CC(=O)O[C@@H]1c1ccc(Cl)cc1
  -0.9%	-0.7%	?	-15.0%	5.8µM*	0.4%	0.7%	9.2µM*
> O=C(C1CCCCC1)N(Cc1cccnc1)c1nc2ccc(Cl)cc2s1
  /	4.9%	2.2%	/	/	-0.6%	/	/
> Cc1noc(C)c1-c1ccc2ncnc(NCc3cc(F)cc(F)c3)c2c1
  /	-3.3%	/	/	/	/	/	?
> Cc1cc(C)nc(OC(C(=O)O)C(OCCc2ccccc2)(c2ccc(F)cc2)c2ccc(F)cc2)n1 (centres undefined)
  -1.1%	-15.5%	26.2%	/	/	-0.8%	/	?
> CCCOC(c1ccccc1)(c1ccc(C(F)(F)F)cc1)C(Oc1nc(C)cc(C)n1)C(=O)O (centres undefined)
  -0.7%	-28.0%	24.6%	-28.5%	1.84µM*	0.5%	-1.5%	3.26µM*
> Oc1cccc2c(CC(O)c3c[nH]c4ccccc34)ccnc12 (centres undefined)
  /	/	/	-29.0%	4.11µM*	/	-14.7%	/
> OCc1c[nH]c2ccccc12
  -0.2%	-9.3%	/	/	/	4.5%	/	15.6%
> CCN(CC)S(=O)(=O)c1ccc(NC(=O)c2ccc(N3CCCC3=O)cc2)cc1
  -0.5%	-15.8%	/	-5.5%	7.31µM*	-0.2%	-1.1%	1.46µM*
> O=C(Nc1ccc(N2CCOCC2)cc1)c1ccc(Cl)c(S(=O)(=O)N2CCCCC2)c1
  -0.2%	-7.3%	/	-2.7%	5.17µM*	0.4%	-2.3%	4.11µM*
> O=C(Nc1ccc(S(=O)(=O)N2CCCC2)cc1)c1ccc(CN2CCOCC2)cc1
  0.0%	-13.5%	25.0%	-7.8%	8.2µM*	4.8%	-1.9%	4.11µM*
> O=C(Nc1ccc(S(=O)(=O)Nc2ccc(F)cc2)cc1)c1ccc(CN2CCOCC2)cc1
  -0.5%	-17.9%	?	-7.6%	/	3.9%	-3.6%	3.66µM*
> O=C(Nc1ccc2c(c1)OCCO2)c1ccc(Cl)c(S(=O)(=O)N2CCOCC2)c1
  0.0%	-13.6%	4.0%	/	/	0.8%	/	-12.9%
> CCN(CC)S(=O)(=O)c1ccc(OC)c(NC(=O)c2ccc(N3CCCC3=O)cc2)c1
  0.5%	-6.9%	/	/	/	-0.3%	/	-0.6%
> O=C(Nc1ccc(S(=O)(=O)N2CCCCC2)cc1)c1ccc(CN2CCOCC2)cc1
  -0.3%	-4.0%	?	1.6%	7.31µM*	-0.7%	-0.9%	4.61µM*
> COc1ccc(NC(=O)c2ccc(Cl)c(S(=O)(=O)N3CCc4ccccc4C3)c2)cn1
  -0.3%	-11.3%	21.8%	/	/	-0.7%	/	?
> CCN(CC)S(=O)(=O)c1ccc(NC(=O)c2ccc(CN3CCOCC3)cc2)cc1
  -0.5%	-4.2%	?	-7.1%	3.66µM*	0.1%	1.3%	3.66µM*
> O=C(NC1CCN(Cc2ccccc2)CC1)c1ccc2c(c1)[nH]c(=O)n2Cc1ccc(F)cc1
  0.0%	?	-4.2%	-15.5%	9.2µM*	6.9%	0.5%	4.61µM*
> COc1ccc(NC(=O)c2ccc(Cl)c(S(=O)(=O)N3CC(C)OC(C)C3)c2)cn1 (centres undefined)
  0.1%	-5.0%	/	-7.5%	7.31µM*	3.2%	1.0%	2.59µM*
> CCCCCn1c(=O)[nH]c2cc(C(=O)NC3CCN(Cc4ccccc4)CC3)ccc2c1=O
  /	1.1%	/	/	/	2.3%	/	-13.4%
> COc1ccc(NS(=O)(=O)c2ccc(NC(=O)c3ccc(CN4CCOCC4)cc3)cc2)cc1
  0.1%	-2.0%	0.6%	/	/	4.6%	/	?
> CCCC/C=C/[C@@H](c1ccccc1)C1COC(=O)CC1O (some centres undefined)
  /	1.0%	/	/	/	/	/	3.0%
> CCOc1ccccc1C(=O)N(Cc1cc(OC)c(OC)c(OC)c1)c1ccccn1
  /	2.1%	8.2%	/	/	-0.2%	/	-7.7%
> CCCc1cc(N2CCN(c3cc(Cl)ccc3C)CC2)n2cnnc2n1
  /	?	14.6%	/	/	2.7%	/	?
> O=C(NC1CCN(Cc2ccccc2)CC1)c1ccccc1
  0.2%	0.1%	-5.0%	/	/	-0.1%	/	-3.7%
> Cc1ccc(NS(=O)(=O)c2ccc(C(=O)NC3CCN(Cc4ccccc4)CC3)cc2)cc1
  0.0%	?	/	-23.8%	7.31µM*	4.6%	2.1%	5.8µM*
> Cc1noc2ncnc(NCCc3ccccc3)c12
  /	-7.0%	15.9%	/	/	1.3%	/	?
> CCOCCCNc1ncnc2onc(C)c12
  /	-4.0%	0.1%	/	/	-0.4%	/	23.9%
> Cc1ccc(CCNc2ncnc3onc(C)c23)cc1
  /	-1.4%	19.9%	0.1%	5.8µM*	4.7%	?	9.2µM*
> CCOc1ccc(CCNc2ncnc3onc(C)c23)cc1OCC
  /	0.6%	25.0%	-3.1%	?	5.0%	3.0%	7.31µM*
> COc1ccc(CNc2ncnc3onc(C)c23)cc1
  /	1.8%	14.9%	0.7%	?	-0.3%	-1.4%	4.11µM*

Molecules above with a thiophene ring, fused or not (2):
Each structure is followed by: B2AR arrestin	A549 tox-1	miR-21 reporter	A549 tox-2	Nrf2 ARE inh	Nrf2 activator	FLuc counter 3	Nrf2 block
> Cc1cccc(/C=C/c2cccs2)n1
  /	/	/	-25.8%	2.59µM*	/	-0.8%	/
> Cc1ccsc1/C=C/c1ccc2cccc(O)c2n1
  13.0%	?	-41.0%	/	/	?	/	2.9%

Reprinted from the results shown for reference:
Each structure is followed by: B2AR arrestin	A549 tox-1	miR-21 reporter	A549 tox-2	Nrf2 ARE inh	Nrf2 activator	FLuc counter 3	Nrf2 block
> CCOc1ccc(CCNc2ncnc3onc(C)c23)cc1OCC
  /	0.6%	25.0%	-3.1%	?	5.0%	3.0%	7.31µM*
> COc1ccc(CNc2ncnc3onc(C)c23)cc1
  /	1.8%	14.9%	0.7%	?	-0.3%	-1.4%	4.11µM*
